From patent US12606559B2, “JAK inhibitor compounds, methods for synthesizing same and use thereof” (GALDERMA HOLDING SA, priority 2020, dated 2026)

How the values were obtained:
[1] = system: IL-6 induced p-STAT3Y705 in skin; assay: In vivo pharmacodynamy model: IL-6 induced Phospho-STAT3, topical; set-up: species or system BALB/c ByJ Rj mice; conditions: topical 1 mM, vehicle PG/EtOH 3/7
[2] = Human skin ex vivo: flux through skin and dermis concentration (Franz cells); assay type: in vitro ADME; conditions: PG/H2O cream 1 mg/mL
Procedure: Flux through skin and dermis concentration were measured during 6-24 h (ng/cm^2/h) after disposition of the test compound 2.7 mM in PG/H2O cream 1 mg/mL. Human dermatomed skin (frozen), 350-500 m thick were used in diffusion cells system Franz cells 1.76 cm^2 maintained at 32±1° C. after equilibration. Skin integrity was confirmed by TEWL<20 g/m^2/h. 3 donors were used for each test. The compound was formulated in modified aqueous British pharmacopoeia cream pH6 PG 14% and applied 5 mg/cm^2 by weighing. Receptor fluid containing 4% BSA in PBS 10 mM was maintained under agitation and was sampled along with dermis sampled at 6 h and 24 h after exposure. 5 Strips were used to remove carefully the excess of formulation and were not dosed.

Compound: N#CC[C@H](C1CCCC1)n1cc(-c2ncnc3[nH]ccc23)cn1 [Ruxolitinib, reference compound]
- PD/IL6 mouse top @1 mM % inh vs vehicle [1]: 60%
- dermis concentration [2]: 1.9 µM
